The values that follow are results of earlier work, collected in publication PMC12987686 (RSC pharmaceutics, 2025).

For this data set the following is noted: cited from earlier work.

Take ^13N-ammonia: the first-pass extraction fraction is given as ~ 80%.
